The chains behind the UniProt entries cited, without tags or fusion partners.
UniProt Q9WTR4, whole entry: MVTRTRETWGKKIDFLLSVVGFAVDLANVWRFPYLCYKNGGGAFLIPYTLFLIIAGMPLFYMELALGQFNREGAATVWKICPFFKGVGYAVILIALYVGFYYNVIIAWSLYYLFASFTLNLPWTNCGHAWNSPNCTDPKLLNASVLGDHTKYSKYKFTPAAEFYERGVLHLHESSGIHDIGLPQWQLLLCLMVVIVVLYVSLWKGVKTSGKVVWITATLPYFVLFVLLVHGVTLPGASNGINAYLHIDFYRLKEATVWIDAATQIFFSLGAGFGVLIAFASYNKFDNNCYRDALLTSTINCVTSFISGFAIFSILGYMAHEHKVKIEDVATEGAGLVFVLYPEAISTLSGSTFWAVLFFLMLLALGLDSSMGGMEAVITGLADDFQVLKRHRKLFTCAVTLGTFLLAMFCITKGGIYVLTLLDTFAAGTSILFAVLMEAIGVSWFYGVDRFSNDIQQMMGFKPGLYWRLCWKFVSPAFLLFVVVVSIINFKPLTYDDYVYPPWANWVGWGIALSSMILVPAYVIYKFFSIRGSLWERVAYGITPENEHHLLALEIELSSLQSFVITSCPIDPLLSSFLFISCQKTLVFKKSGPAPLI

According to ChEMBL document CHEMBL1129668 (J Med Chem, 1996):

Target: Norepinephrine transporter (Rattus norvegicus, UniProt Q9WTR4)
Assay: In vitro binding affinity towards Norepinephrine transporter rat cerebral cortical homogenates by [3H]nisoxetine displacement.
Method in brief: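 Crude membrane fraction of rat frontoparietal cerebral cortex in 50 mM Tris-HCl (pH 7.4) with Na+, K+ (5 mM). […] Typically six concentrations in duplicate; curves computer-fit for IC50, converted to Ki = IC50/(1 + [L]/K_d).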

How did the Ki turn out when `COC(=O)[C@H]1[C@@H](OC(=O)c2ccccc2)C[C@@H]2CC[C@H]1N2C` [COCAINE] was run?
Its Ki is > 30 µM.
